Reference: publication PMC8274062, “Promising Non-cytotoxic Monosubstituted Chalcones to Target Monoamine Oxidase-B” (ACS Medicinal Chemistry Letters, 2021)

The chains behind the UniProt entries cited, without tags or fusion partners.
UniProt P27338, whole entry: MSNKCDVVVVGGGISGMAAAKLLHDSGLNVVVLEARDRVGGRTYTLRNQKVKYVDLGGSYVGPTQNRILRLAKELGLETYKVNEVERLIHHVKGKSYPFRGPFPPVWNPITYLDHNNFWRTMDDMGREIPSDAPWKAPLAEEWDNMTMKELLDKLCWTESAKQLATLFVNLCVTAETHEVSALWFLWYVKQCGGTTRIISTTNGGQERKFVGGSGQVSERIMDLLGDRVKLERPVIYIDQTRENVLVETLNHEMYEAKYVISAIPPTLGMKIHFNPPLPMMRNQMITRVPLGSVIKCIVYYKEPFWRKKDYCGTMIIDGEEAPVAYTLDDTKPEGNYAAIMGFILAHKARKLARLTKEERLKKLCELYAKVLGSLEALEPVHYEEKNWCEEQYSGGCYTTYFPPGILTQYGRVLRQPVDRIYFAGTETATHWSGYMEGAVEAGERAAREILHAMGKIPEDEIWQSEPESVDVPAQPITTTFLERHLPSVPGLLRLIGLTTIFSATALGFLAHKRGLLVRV

Target: human recombinant MAO-B (Homo sapiens, UniProt P27338)
Test: Monoamine oxidase inhibition assay (Amplex Red, kynuramine), MAO-B
Conditions: S.I. = Ki(MAO-A)/Ki(MAO-B)

`O=C(/C=C/c1ccccc1)c1cccc(C(F)(F)F)c1` [Compound 13] was tested, and the “S.I. (selectivity index)” value was 920.
